The assay concerns the target Acetylcholinesterase (Electrophorus electricus, UniProt O42275).

Amino acid sequences for entries named in this document (tags omitted). A change or cut given only in a name is not applied to a line headed by its entry.
UniProt O42275: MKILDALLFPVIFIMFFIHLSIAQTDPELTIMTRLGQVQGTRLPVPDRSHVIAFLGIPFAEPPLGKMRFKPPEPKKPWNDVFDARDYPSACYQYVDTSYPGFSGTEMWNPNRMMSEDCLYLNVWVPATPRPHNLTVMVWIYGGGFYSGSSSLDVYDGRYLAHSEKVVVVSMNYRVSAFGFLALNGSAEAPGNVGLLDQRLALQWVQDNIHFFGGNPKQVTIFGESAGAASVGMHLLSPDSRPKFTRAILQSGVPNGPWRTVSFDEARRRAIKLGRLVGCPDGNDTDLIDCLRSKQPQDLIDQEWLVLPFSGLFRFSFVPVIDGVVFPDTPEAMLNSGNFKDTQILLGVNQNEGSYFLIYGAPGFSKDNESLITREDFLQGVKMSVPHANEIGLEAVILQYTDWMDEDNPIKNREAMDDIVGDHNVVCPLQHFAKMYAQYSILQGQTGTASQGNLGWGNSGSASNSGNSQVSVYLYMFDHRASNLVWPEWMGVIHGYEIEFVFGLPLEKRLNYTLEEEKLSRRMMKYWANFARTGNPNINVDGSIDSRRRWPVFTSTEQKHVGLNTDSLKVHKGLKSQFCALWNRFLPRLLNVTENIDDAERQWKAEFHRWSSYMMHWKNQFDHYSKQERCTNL

The structures appear in SMILES notation.

On to `CNC(=O)Oc1ccc2c(c1)[C@]1(C)CCN(C)[C@@H]1N2C` [PHYSOSTIGMINE], for which inhibition was half-maximal at 1170 nM (IC50).

The term IC50 denotes the concentration that gives 50% inhibition. A higher IC50 goes with lower potency.

Values taken from ChEMBL document CHEMBL4699404, “Arylsulfonyl histamine derivatives as powerful and selective alpha-glucosidase inhibitors” (RSC Med Chem, 2020).
